# Reference: paper PMC4906375, “Contribution of Amphipathicity and Hydrophobicity to the Antimicrobial Activity and Cytotoxicity of β-Hairpin Peptides” (ACS Infectious Diseases, 2016)
# Where two headings read alike, the source gives them in different places.
# How the values were obtained:
# [1] = tested on: K. pneumoniae BAA 2146 (NDM-1 pos); type: cell-based, Klebsiella pneumoniae; settings: n = 4
# Protocol: (§1) Both antibacterial and antifungal MIC assays were performed by a broth microdilution plate based method as per CLSI guidelines for antimicrobial susceptibility testing.[53],[54] […] Full assay details are included in the Supporting Information with a full list of strains tested in Table S1.
# (§2) Antibacterial assay (Minimum Inhibitory Concentration [MIC]).
# (§3) MIC assay was performed by a broth microdilution plate based method as per CLSI guidelines for antimicrobial susceptibility testing of aerobic bacteria.1 Compounds were prepared at 1.28 mg/mL solution in water. The tested strains, Table S1, were cultured in Luria broth (LB) (In Vitro Technologies, USB75852), at 37 °C overnight. A sample of culture was then diluted 40Pfold in fresh Muller Hinton broth (MHB) (Bacto laboratories, 211443) and incubated at 37 °C for 1.5P2 h. The compounds were serially diluted twoPfold across the wells, with compound concentrations ranging from 0.015 µg/mL to 512 µg/mL, plated in duplicate. The resultant midPlog phase cultures were diluted to the final concentration of 1×10^6 CFU/mL, then 50 µL was added to each well of the compoundP containing 96Pwell plates (Corning 3641, NonPbinding Surface [NBS]), giving a final compound concentration range of 0.008 µg/mL to 256 µg/mL and 5x10^5 CFU/mL. All the plates were covered and incubated at 37 °C for 18 h. MICs were determined visually, being defined as the lowest concentration showing no visible growth. Resazurin was added at 0.001% final concentration to each well and incubated for 2 h before MICs were rePread for confirmation using the colour change from blue to pink to indicate wells containing viable cells. The resazurin assay was added in some wells where some form of precipitate was present in otherwise clear wells, making it difficult to ascertain which wells had visible […]
# (§4) Antifungal assay (Minimum Inhibitory Concentration [MIC]). MIC assay was performed by a broth microdilution plate based method as per CLSI guidelines for antimicrobial susceptibility testing.2 Fungi strains, Table S1, were cultured for 3 days on Yeast ExtractPPeptone Dextrose (YPD) (SigmaPAldrich, Y1500) agar at 30 °C. A yeast suspension of 1x10^6 to 5x10^6 CFU/mL was prepared from five colonies. These stock suspensions were diluted with Yeast Nitrogen Base (YNB) (Becton Dickinson, 233520) broth to a final concentration of 2.5 ×10^3 CFU/mL. All samples, compounds and standards were plated in 96Pwell plates (Corning 3641, NonPbinding Surface [NBS]), by adding 10 µL of 1.28 mg/mL stock solution to each well and 90 µL of media. Then, the samples were serial diluted (1:2) in 12 concentrations across the plate. The standard antifungal ranged from 256
# [2] = tested on: K. pneumoniae ATCC 13883; type: cell-based, Klebsiella pneumoniae; settings: n = 4
# Protocol: as §1, §2, §3, §4
# [3] = tested on: K. pneumoniae ATCC 700603 (MDR); type: cell-based, Klebsiella pneumoniae
# Protocol: as §1, §2, §3, §4
# [4] = tested on: B. subtilis ATCC 6051; type: cell-based, Bacillus subtilis
# Protocol: as §1, §2
# as §3, with “h.” for “h. MICs were determined visually, being defined as the lowest concentration showing no visible growth. Resazurin was added at 0.001% final concentration to each well and incubated for 2 h before MICs were rePread for confirmation using the colour change from blue to pink to indicate wells containing viable cells. The resazurin assay was added in some wells where some form of precipitate was present in otherwise clear wells, making it difficult to ascertain which wells had visible”
# [5] = tested on: S. aureus ATCC 43300 (MRSA); type: cell-based, Staphylococcus aureus; settings: n = 4
# Protocol: as §1, §2
# as §3, with “h.” for “h. MICs were determined visually, being defined as the lowest concentration showing no visible growth. Resazurin was added at 0.001% final concentration to each well and incubated for 2 h before MICs were rePread for confirmation using the colour change from blue to pink to indicate wells containing viable cells. The resazurin assay was added in some wells where some form of precipitate was present in otherwise clear wells, making it difficult to ascertain which wells had visible”
# [6] = tested on: C. neoformans ATCC 208821; type: cell-based, Cryptococcus neoformans; settings: n = 4
# Protocol: as §1, §2
# (§5) MIC assay was performed by a broth microdilution plate based method as per CLSI guidelines for antimicrobial susceptibility testing of aerobic bacteria.1 Compounds were prepared at 1.28 mg/mL solution in water. The tested strains, Table S1, were cultured in Luria broth (LB) (In Vitro Technologies, USB75852), at 37 °C overnight. A sample of culture was then diluted 40Pfold in fresh Muller Hinton broth (MHB) (Bacto laboratories, 211443) and incubated at 37 °C for 1.5P2 h. The compounds were serially diluted twoPfold across the wells, with compound concentrations ranging from 0.015 µg/mL to 512 µg/mL, plated in duplicate. […]
# (§6) µg/mL to 0.12 µg/mL and compounds from 128 µg/mL to 0.06 µg/mL with final volumes of 50 µL per well, plated in duplicate. […] Candida albicans MICs were determined by measuring the absorbance at OD530. […]
# (§7) Cryptococcus neoformans MICs were determined by measuring the absorbance at OD570P600. […]
# [7] = tested on: E. coli ATCC 25922 (control strain); type: cell-based, Escherichia coli; settings: n = 4
# Protocol: as §1, §2, §3
# (§8) Antifungal assay (Minimum Inhibitory Concentration [MIC]). […]
# [8] = tested on: E. coli MB 4902 (ΔlpxC); type: cell-based, Escherichia coli; settings: n = 4
# Protocol: as §1, §2, §3, §8
# [9] = tested on: E. coli ATCC 700926 (K12); type: cell-based, Escherichia coli; settings: n = 4
# Protocol: as §1, §2, §3, §8
# [10] = tested on: C. albicans ATCC 90028; type: cell-based, Candida albicans; settings: n = 4
# Protocol: as §1, §2, §5, §6, §7
# [11] = tested on: P. aeruginosa ATCC 27853; type: cell-based, Pseudomonas aeruginosa; settings: n = 4
# Protocol: as §1, §2
# as §3, with “h.” for “h. MICs were determined visually, being defined as the lowest concentration showing no visible growth. Resazurin was added at 0.001% final concentration to each well and incubated for 2 h before MICs were rePread for confirmation using the colour change from blue to pink to indicate wells containing viable cells. The resazurin assay was added in some wells where some form of precipitate was present in otherwise clear wells, making it difficult to ascertain which wells had visible”
# [12] = Hemolysis assay; settings: hemolysis (%) at 300 μg/mL, human erythrocytes, 3 h, relative to 100% hemolysis by 1% Triton X-100
# [13] = tested on: human erythrocytes; assay: Hemolysis assay; settings: 3 h, relative to 100% hemolysis by 1% Triton X-100
# [14] = tested on: A. baumannii ATCC 19606; type: cell-based, Acinetobacter baumannii; settings: n = 4
# Protocol: as §1, §2
# as §3, with “h.” for “h. MICs were determined visually, being defined as the lowest concentration showing no visible growth. Resazurin was added at 0.001% final concentration to each well and incubated for 2 h before MICs were rePread for confirmation using the colour change from blue to pink to indicate wells containing viable cells. The resazurin assay was added in some wells where some form of precipitate was present in otherwise clear wells, making it difficult to ascertain which wells had visible”
# [15] = tested on: E. coli ATCC 25922 cytoplasmic membrane; assay: Inner membrane permeability measured by SYTOX green fluorescence emission; settings: same E. coli ATCC 25922 strain
# [16] = Plasma protein binding, ultrafiltration; type: in vitro ADME; settings: 100% human plasma, read-out: PPB (%) (converted)
# Protocol: Plasma protein binding was performed using an ultrafiltration method.[58]
# Plasma protein binding assay
# Plasma protein binding was performed using an Ultrafiltration method.13 Fresh frozen human plasma was pooled from O Negative (Product number 1274512) blood from the R & D division of the Australian Red Cross Blood Services (Brisbane). Stock solutions (20 mg/mL) of the test compounds were prepared in H2O. Test compounds (40 µg/mL) were incubated in 100 % human plasma at 37 °C for 30 min (1 mL volume). For unfiltered samples, an aliquot (50 µL) was removed, diluted with PBS (50 µL) and quenched with icePcold precipitating solution comprising 0.5 µM carbutamide MS internal standard in acetonitrile : methanol : formic acid (1: 1 : 0.001). Samples were incubated at 4 °C for 30 min then centrifuged at 14000 × g for 8 min, with the clear supernatant transferred to a vial for LC/MS/MS analysis.
# For filtered samples, the plasma sample (250 µL) was filtered using Amicon UltraP0.5 Centrifugal Filter Devices 30K NMWL at 14000 × g for 7 min and then an aliquot (50 µL) was processed as described for unfiltered samples. The fraction of unbound compound was calculated by determining the concentration of the filtered sample and the concentration of unfiltered sample. All samples were performed in triplicate with sulfamethoxazole as a […]
# [17] = Cytotoxicity, Alamar Blue (resazurin) assay; type: cell-based; settings: human, HepG2 cells
# Protocol: (§9) Cytotoxicity to HEK293 and HepG2 cells was determined using the Alamar Blue (resazurin) assay,[55],[56] with 24 h of incubation and either 1 or 10% serum concentration. Full assay details are included in the Supporting Information.
# (§10) Cytotoxicity. Cytotoxicity to HEK293 and HepG2 cells was determined using the Alamar Blue (resazurin) assay,3, 4 For the assays supplemented with 1 % FBS as final concentration the cells were seeded one day prior to the assay (3,000 per 20 µL for HEK293 and 4,000 per 20 µL for HepG2) with DMEM + 2 % FBS. The compounds were prepared as described below, using DMEM with no FBS instead to give the final FBS concentration of 1 %.
# The highest concentration the compounds were tested was 300 µg/mL. A dilution series of 1:3 fold steps in DMEM (GIBCOPInvitrogen, cat. no. 11995P073) + 10 % FBS was created (concentration range of 600 µg/mL – 0.28 µg/mL), and 20 µL of these 2x concentrated compound dilutions were added in duplicates to wells of a black wall, clear bottom 384Pwells cell culture plate. […]
# After the incubation, 5 µL of 100 µM (25 µg/mL) resazurin dissolved in PBS (final concentration was approximately 11 µM) was added to each well. […] The fluorescence intensity was read using the TECAN Infinite M1000 PRO with excitation/emission 560/590. The data was analysed by Graph Pad Prism software. […]
# [18] = Cytotoxicity, Alamar Blue (resazurin) assay; type: cell-based, human; settings: human, HEK293 cells
# Protocol: as §9, §10
# (§11) The highest concentration the compounds were tested was 300 µg/mL. A dilution series of 1:3 fold steps in DMEM (GIBCOPInvitrogen, cat. no. 11995P073) + 10 % FBS was created (concentration range of 600 µg/mL – 0.28 µg/mL), and 20 µL of these 2x concentrated compound dilutions were added in duplicates to wells of a black wall, clear bottom 384Pwells cell culture plate. For the assays with 1 % FBS the compounds in 0 % FBS were added to the existing cell plates in 2 % FBS. 200 µM Tamoxifen (Sigma T5648) served as negative control and in addition a serial dilution of tamoxifen, starting at 200 µM (74 µg/mL), was included as a dose response control (1 in 2 dilution series for tamoxifen). For the assay with 10 % FBS, HepG2 cells were seeded at 5000 cells per well, in a volume of 20 µL in DMEM medium + 10 % of FBS and added to the 20 µL of compound solution (total volume of 40 µL), resulting in a final compound concentration range of 300 µg/mL to 0.14 µg/mL.
# (§12) Cells were incubated together with the compounds for 20 h at 37 °C, 5 % CO2.
# (§13) After the incubation, 5 µL of 100 µM (25 µg/mL) resazurin dissolved in PBS (final concentration was approximately 11 µM) was added to each well. The plates were then incubated for 3 h at 37 °C, 5 % CO2. The fluorescence intensity was read using the TECAN Infinite M1000 PRO with excitation/emission 560/590. The data was analysed by Graph Pad Prism software. […]
# [19] = tested on: HEK293 cells; assay: Cytotoxicity, Alamar Blue (resazurin) assay; type: cell-based, human; settings: kidney cells (HEK293) vs liver cells (HepG2)
# Protocol: as §9, §10, §11, §12, §13
smiles,measurement,setting,value
CC(C)C[C@@H]1NC(=O)[C@H](CCCNC(=N)N)NC(=O)[C@H](CCCNC(=N)N)NC(=O)[C@@H](NC(=O)[C@@H]2CCC(=O)N2)CSSC[C@@H](C(=O)N[C@@H](CCCNC(=N)N)C(=O)NCC(=O)N[C@@H](CCCNC(=N)N)C(N)=O)NC(=O)[C@H](Cc2ccc(O)cc2)NC(=O)[C@H]([C@@H](C)O)NC(=O)[C@H](C(C)C)NC(=O)[C@@H]2CSSC[C@H](NC1=O)C(=O)N[C@@H](Cc1ccc(O)cc1)C(=O)N[C@@H](CCCCN)C(=O)N[C@@H](CCC(N)=O)C(=O)N[C@@H](CCCNC(=N)N)C(=O)N2 [gomesin],MIC,[1],32 µg/mL
same,MIC,[2],16 µg/mL
same,fold reduction of activity,"[3]; K. pneumoniae (ATCC 700603, MDR) and S. aureus (ATCC 43300, MRSA) vs other strains",4–8 fold
same,MIC,"[3]; K. pneumoniae ATCC 700603 (MDR), n = 4",64 µg/mL
same,MIC,"[4]; B. subtilis ATCC 6051, n = 4",2 µg/mL
same,fold more potent,[4]; B. subtilis and C. neoformans vs any other strains of bacteria and fungi,2–10 fold
same,MIC,[5],128 µg/mL
same,MIC,[6],2 µg/mL
same,MIC,[7],16 µg/mL
same,MIC,[8],4 µg/mL
same,MIC,[9],8 µg/mL
same,MIC,[10],16 µg/mL
same,MIC,[11],16 µg/mL
same,hemolysis,[12],4%
same,hemolysis (%) at 300 μg/mL,[13],4.4 ± 0.1%
same,MIC,[14],16 µg/mL
same,permeabilization concentration relative to MIC,[15],lower concentration than their MIC
same,fraction unbound,[16],0.13
same,CC50 at 24 h,"[17]; HepG2, 1% FBS, read-out: cytotoxicity HepG2 1% FBS",162.4 ± 1.1 µg/mL
same,CC50 at 24 h,"[17]; HepG2, 10% FBS, read-out: cytotoxicity HepG2 10% FBS",220 ± 73.3 µg/mL
same,CC50 at 24 h,"[18]; HEK293, 1% FBS, read-out: cytotoxicity HEK293 1% FBS",102 ± 1.1 µg/mL
same,CC50 at 24 h,"[18]; HEK293, 10% FBS, read-out: cytotoxicity HEK293 10% FBS",116 ± 25.1 µg/mL
same,fold more toxicity toward HEK293 than HepG2,[19],approximately 2 fold
